The values that follow come from PubChem BioAssay AID2435 (The Scripps Research Institute Molecular Screening Center, 2010).

Chains of the proteins cited; added tags and fusions are not shown. Lines headed by an entry give the natural chain unless they say otherwise; changes in a name come on top.
UniProt P30559: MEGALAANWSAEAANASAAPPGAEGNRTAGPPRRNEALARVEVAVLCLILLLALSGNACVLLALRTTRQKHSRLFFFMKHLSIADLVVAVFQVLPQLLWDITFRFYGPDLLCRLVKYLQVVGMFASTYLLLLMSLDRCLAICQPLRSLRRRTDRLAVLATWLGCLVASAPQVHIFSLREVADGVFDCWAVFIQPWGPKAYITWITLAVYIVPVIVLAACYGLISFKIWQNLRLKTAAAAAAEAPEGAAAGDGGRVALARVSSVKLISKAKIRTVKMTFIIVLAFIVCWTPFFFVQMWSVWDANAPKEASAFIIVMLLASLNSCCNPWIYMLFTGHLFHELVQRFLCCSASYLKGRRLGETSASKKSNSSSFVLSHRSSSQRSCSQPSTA

Only a part is listed here, and it is no random draw. Active and inactive are the calls of the source.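 How the source made its calls: active means activation above the mean of all tested compounds plus 3 SD, cutoff set per screening run (cut at about 20% in these data); inactive means the rest.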

In the experiment the target is Oxytocin receptor (Homo sapiens) (UniProt P30559). Briefly: oxytocin receptor activation by calcium flux – fluorescence, CHO-OTR cells, Fluo-8 calcium, primary screen (AID 2435).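 Further: peak over basal fluorescence ratio from a 100 s FLIPR kinetic read.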 To be noted: Fluo-8 calcium fluorescence, at 3 µM, hits give high values, normalized: DMSO 0%, oxytocin 100%.
As to `O=P(Nc1nccs1)(c1ccccc1)c1nc2ccccc2s1` (stereo unspecified), the activation was inactive: -1.09%.

Take `O=P(Nc1nccs1)(Oc1ccccc1)Oc1ccccc1`: the activation was inactive: 0.03%.

In the case of `CCOP1(=S)c2c(C)nn(CCC#N)c2N=C(c2ccccc2F)N1C` (stereo unspecified), the activation was inactive: -1.19%.

On to `CS(=O)(=O)c1cc([N+](=O)[O-])c2no[n+]([O-])c2c1`, for which the activation was inactive: 0.21%.

Take `Nc1ccccc1[As](=O)(O)c1ccccc1`: the activation was inactive: 0.22%.

`O=C(O)COc1ccc([As](=O)(O)O)cc1[N+](=O)[O-]`: the activation is inactive: 0.1%.

Consider `NC(=O)Nc1ccc([As](=O)(O)O)cc1`, for which the activation was inactive: 0.52%.

`CCOP1(=S)c2c(C)nn(CCC#N)c2N=C(c2ccc(F)cc2)N1C` (stereo unspecified): the activation is inactive: -0.79%.

Regarding `CN(C(=O)Cc1ccccc1)[C@@H]1CC[C@]2(CCCO2)C[C@H]1N1CCCC1`, the activation was inactive: 0.21%.

As to `N#CCCN(C(=O)COC(=O)C(O)(c1ccccc1)c1ccccc1)c1ccc(F)cc1`, the activation was inactive: 4.08%.

On to `CN(C(=O)Cc1ccc(Cl)c(Cl)c1)[C@H]1CC[C@@]2(CCCO2)C[C@@H]1N1CCCC1`, for which the activation is inactive: 1.09%.

Turning to `CN(C)C(=O)c1cc([N+](=O)[O-])cc2c1-c1c(cc([N+](=O)[O-])cc1[N+](=O)[O-])C2=O`, the activation is inactive: -2.53%.

With `O=[N+]([O-])c1ccc2c(c1)nnn2O`, the activation was inactive: 0.48%.

For `O=C(OC1CN2CCC1CC2)c1ccc(Cl)cc1` (stereo unspecified), the activation is inactive: 1.05%.

Take `CS(=O)(=O)c1ccc(Cl)c(NC(=O)COC(=O)C(O)(c2ccccc2)c2ccccc2)c1`: the activation is inactive: 11.4%.

As to `COc1cc(C(=O)NCC2(N3CCOCC3)CCCCC2)cc(Cl)c1OC(C)C`, the activation was inactive: -3.16%.

For `O=[As](O)(O)c1cccnc1`, the activation is inactive: 0.28%.

Turning to `O=[As](O)(c1cccc(O)c1)c1cccc(O)c1`, the activation is inactive: 1.36%.

As to `Cc1cccc(OCC(=O)OC2CN3CCC2CC3)c1` (stereo unspecified), the activation is inactive: 0.32%.

Take `Cc1ccc(NCCc2c([N+](=O)[O-])cc([N+](=O)[O-])cc2[N+](=O)[O-])cc1`: the activation is inactive: -1.93%.

Consider `CCCOP(=S)(Nc1nc(N)cc(=O)[nH]1)OCCC`, for which the activation was inactive: -0.7%.

For `CCOP(=O)(Nc1cccc2ccccc12)OCC`, the activation was inactive: -0.54%.

Turning to `COc1cc(C2NCCC3(OCCO3)C2(C)C)cc(OC)c1OC` (stereo unspecified), the activation was inactive: 1.48%.

Turning to `CCOP(=O)(NC(=NC(C)c1ccccc1)NC(C)c1ccccc1)OCC` (stereo unspecified), the activation was inactive: -0.78%.

Take `O=P1(Nc2ccccn2)COc2ccccc2OC1`: the activation was inactive: -0.76%.

As to `CCC1=CC2Cc3nc4ccc(Cl)cc4c(N)c3C(C1)C2` (stereo unspecified), the activation was inactive: 5.29%.

In the case of `CN(CCCl)Cc1cc(Cl)c(NC2=NCCN2)c(Cl)c1`, the activation is inactive: 0.35%.

For the molecule `CCOP(=O)(Nc1ccc(C)cn1)OCC`, the activation is inactive: 0.63%.

Take `CC(C)(C)C(=O)NC(Sc1ncccn1)C(Cl)(Cl)Cl` (stereo unspecified): the activation is inactive: -0.21%.

For `Clc1n[nH]nc1-c1nn[nH][15n]1`, the activation is inactive: 0.95%.

Regarding `COc1ccccc1CNC(=O)COC(=O)C(O)(c1ccccc1)c1ccccc1`, the activation is inactive: 0.59%.

As to `CC(C)/C=N\N=C(\N)N[N+](=O)[O-]`, the activation was inactive: -0.31%.

In the case of `CN(C(=O)Cc1ccc(Cl)c(Cl)c1)[C@@H]1CCCC[C@H]1N1CCCC1`, the activation is inactive: -0.06%.

Consider `CC1(CBr)Cn2c(nc3ccccc3c2=O)S1` (stereo unspecified), for which the activation is inactive: 0.65%.

`O=[As](O)(c1ccccc1Br)c1ccccc1Br`: the activation is inactive: -0.27%.

`CC1CCC(C(C)C)C(OP(=O)(Nc2ccccn2)c2ccccc2)C1` (stereo unspecified): the activation was inactive: -0.72%.

Take `Cc1ccc(C(=O)OC2CN3CCC2CC3)cc1` (stereo unspecified): the activation is inactive: 0.4%.

For `Cc1nn(-c2ccccc2)c2c1P(=O)(N1CCOCC1)N(C)C(c1ccccc1)=N2` (stereo unspecified), the activation is inactive: 0.02%.

Consider `CN(C)C1(CNC(=O)c2ccc(S(C)(=O)=O)cc2)CCCCC1`, for which the activation is inactive: 1.14%.

As for `O=C(/C=C/c1ccccc1)OC1CN2CCC1CC2` (stereo unspecified), the activation is inactive: -1.64%.

Take `O=P1(Nc2ncccn2)COc2ccccc2OC1`: the activation was inactive: 1.14%.

In the case of `Nc1cccc([As](=O)(O)c2ccccc2)c1`, the activation was inactive: 0.91%.

On to `O=P1(Nc2ccc(Br)cn2)COc2ccccc2OC1`, for which the activation was inactive: 2.11%.

On to `NS(=O)(=O)c1cccc(NC(=O)COC(=O)C(O)(c2ccccc2)c2ccccc2)c1`, for which the activation is inactive: -0.14%.

With `O=[As](O)(c1cccs1)c1cccs1`, the activation is inactive: 0.52%.

Turning to `Cc1ccc(OCC(=O)OC2CN3CCC2CC3)cc1` (stereo unspecified), the activation was inactive: 1.26%.

As to `CCOC(=O)Nc1ccc([As](=O)(O)O)c(O)c1`, the activation is inactive: 0.44%.

As for `Cc1cc(SC(NC(=O)c2ccccc2)C(Cl)(Cl)Cl)nc(C(C)C)n1` (stereo unspecified), the activation was inactive: -0.54%.

Consider `CCOC(=O)Nc1cccc([As](=O)(O)O)c1`, for which the activation is inactive: 0.96%.

Regarding `O=P(Nc1ccccn1)(c1cccc2ccccc12)c1cccc2ccccc12`, the activation is inactive: 9.77%.

On to `Cc1cc(SC(NC=O)C(Cl)(Cl)Cl)ncn1` (stereo unspecified), for which the activation is inactive: 0.66%.

As for `COP1(=S)c2c(C)nn(CCC#N)c2N=C(c2ccc(F)cc2)N1C` (stereo unspecified), the activation was inactive: 0.25%.

In the case of `O=C(Nc1ccncc1[N+](=O)[O-])c1ccc([N+](=O)[O-])cc1[N+](=O)[O-]`, the activation is inactive: 0.9%.

`O=C(COc1ccccc1)OC1CN2CCC1CC2` (stereo unspecified): the activation was inactive: 0.77%.

For `O=C(OC1CN2CCC1CC2)c1cccc([N+](=O)[O-])c1` (stereo unspecified), the activation was inactive: -0.23%.

In the case of `CCOC(=O)c1ccc(NC(=O)C(C)(CCl)SC)cc1` (stereo unspecified), the activation was inactive: 0.11%.

`CCC(C)N(CC(C)C)C(=S)SC(NC(C)=O)C(Cl)(Cl)Cl` (stereo unspecified): the activation is inactive: 0.75%.

`Cc1c2c(nc3ccccc13)SC(C(Cl)Cl)C2` (stereo unspecified): the activation was inactive: -2.55%.

For `Cc1cc(=O)[nH]c(N[N+](=O)[O-])n1`, the activation was inactive: 0.63%.

In the case of `O=C(OC1CN2CCC1CC2)C12CC3CC(CC(C3)C1)C2` (stereo unspecified), the activation is inactive: 3.87%.

For the molecule `COc1cc(I)ccc1[As](=O)(O)O`, the activation was inactive: -0.98%.

As to `COc1ccc2nc(NP(=O)(c3ccccc3)c3ccccc3)sc2c1`, the activation is inactive: -1.44%.

With `COc1ccc(N/C(=N/P(=O)(N2CCOCC2)N2CCOCC2)N2CCOCC2)cc1`, the activation was inactive: 1.25%.

In the case of `COc1cc(C(=O)NCC2(N3CCOCC3)CCCCC2)ccc1OCC(C)C`, the activation was inactive: -2.29%.

With `C[As](=O)(O)c1cccc(C(=O)O)c1`, the activation was inactive: -0.35%.

Turning to `O=[As](O)(c1ccc(O)cc1)c1ccccc1O`, the activation was inactive: 2.07%.

Regarding `Cc1ccc(OP(=O)(Nc2ccc([N+](=O)[O-])cn2)Oc2ccc(C)cc2)cc1`, the activation was inactive: -0.89%.

For the molecule `Cc1ccc2nc3c(c(C)c2c1)CC(C(Cl)Cl)S3` (stereo unspecified), the activation was inactive: -1.82%.

In the case of `ClCCSc1nnc(-c2cccnc2)o1`, the activation was inactive: 1.12%.

For the molecule `CC(C)c1ccc(OP(=O)(Nc2ccccn2)Oc2ccccc2F)cc1` (stereo unspecified), the activation is inactive: -1.09%.

With `O=[N+]([O-])c1cc([N+](=O)[O-])c(-c2ccn[nH]2)s1`, the activation was inactive: 0.17%.

`CCN(CC)C(=S)SC(NC=O)C(Cl)(Cl)Cl` (stereo unspecified): the activation was inactive: 1.98%.

Take `CC(C)NC(=O)NP(=O)(Oc1ccccc1)Oc1ccccc1`: the activation is inactive: 0.49%.

`O=P(Nc1nc2ccc(Cl)cc2s1)(c1ccccc1)c1ccccc1`: the activation is inactive: 6.73%.

For the molecule `O=C(O)c1ccccc1[As](=O)(O)O`, the activation is inactive: -0.04%.

On to `CC(=O)Nc1ccc([As](=O)(O)O)cc1`, for which the activation is inactive: 1.09%.

Consider `Cc1ccc(NP(=O)(Oc2ccccc2F)Oc2ccccc2F)nc1`, for which the activation is inactive: -0.41%.

`CN(C(=O)Cc1ccc(Cl)c(Cl)c1)[C@H]1CCCC[C@@H]1N1CCCC1`: the activation is inactive: -0.39%.

As for `CCOP(=O)(Nc1ccccc1)OCC`, the activation is inactive: 0.39%.

Take `Cc1cc(SC(NC(=O)c2ccc(F)cc2)C(Cl)(Cl)Cl)ncn1` (stereo unspecified): the activation is inactive: -0.07%.

On to `O=[N+]([O-])c1cc([N+](=O)[O-])c(CCN2CCOCC2)c([N+](=O)[O-])c1`, for which the activation is inactive: -0.71%.

For `CCN(N=Nc1nonc1N)c1nonc1N`, the activation was inactive: 0.67%.

On to `Cc1ccc(N/C(=N/P(=O)(N2CCOCC2)N2CCOCC2)N2CCOCC2)cc1`, for which the activation was inactive: 0.03%.

`CN(C(=O)Cc1ccc(Cl)c(Cl)c1)[C@H]1CCCC[C@H]1N1CCCC1`: the activation is inactive: 0.56%.

Take `NC(=O)c1cc([N+](=O)[O-])cc([N+](=O)[O-])c1N`: the activation was inactive: 0.03%.

Consider `Clc1ccc(Cl)c(NC2=NCC(CBr)S2)c1` (stereo unspecified), for which the activation was inactive: 0.35%.

As to `CN1CCCC(OC(=O)C(c2ccccc2)c2ccccc2)C1` (stereo unspecified), the activation is inactive: 1.23%.

In the case of `Cc1ccc(OP(=O)(Nc2nccs2)Oc2ccc(C)cc2)cc1`, the activation was inactive: -2.74%.

Turning to `COc1ccccc1OP(=O)(Nc1ccc(C)cn1)Oc1ccccc1OC`, the activation is inactive: -0.65%.

`Cc1c2non([O-])c-2c(C)[n+](=O)[n+]1[O-]`: the activation was inactive: 10.3%.

On to `O=C(NC(Sc1ccncn1)C(Cl)(Cl)Cl)c1ccccc1` (stereo unspecified), for which the activation was inactive: -0.63%.

For the molecule `Oc1ccccc1CNc1ccccn1`, the activation is inactive: 0.54%.

As to `CC(C)CC(=O)NC(Sc1ccc(Cl)cc1)C(Cl)(Cl)Cl` (stereo unspecified), the activation was inactive: -2.32%.

In the case of `Nc1cc(N)c2nonc2c1[N+](=O)[O-]`, the activation was inactive: 1%.

For `COc1ccc(C2=NCC(CBr)S2)cc1` (stereo unspecified), the activation is inactive: 1.46%.

In the case of `CCc1nc2c(n1)c1c(non1O)c1c2no[n+]1[O-]`, the activation was inactive: 7.21%.

Take `O=[N+]([O-])c1cc([N+](=O)[O-])c(CCNc2ccccc2)c([N+](=O)[O-])c1`: the activation is inactive: -1.77%.

Consider `Cc1ccc(NP(=O)(Oc2ccccc2)Oc2ccccc2)nc1`, for which the activation was inactive: -2.63%.

As for `O=[N+]([O-])c1cccc2n[nH]nc12`, the activation is inactive: 0.16%.

As to `CC(=O)N1C2C3N(C(C)=O)C1C1N(C(C)=O)C(C(N1C(C)=O)N3C(C)=O)N2C(C)=O`, the activation was inactive: 0.39%.

Take `CCN(/C(=N/P(=O)(N1CCOCC1)N1CCOCC1)N1CCOCC1)c1ccc(OC)cc1`: the activation was inactive: 0.73%.
